Assays:
Experiment in all cases: radiometric filter-binding kinase assay, Kinase HotSpot
Settings in all cases: compound 0.5 µM; ATP 10 µM
[1] = target: BTK (human) (UniProt Q06187)
[2] = target: EPHB2 (human) (UniProt P29323)
[3] = target: EPHA8 (human) (UniProt P29322)
[4] = target: PDGFRB (human) (UniProt P09619)
[5] = target: CLK1 (human) (UniProt P49759)
[6] = target: SRMS (human) (UniProt Q9H3Y6)
[7] = target: ROCK1 (human) (UniProt Q13464)
[8] = target: CSNK2A2 (human) (UniProt P19784)
[9] = target: DAPK1 (human) (UniProt P53355)
[10] = target: CAMKK1 (human) (UniProt Q8N5S9)
[11] = target: SGK2 (human) (UniProt Q9HBY8)
[12] = target: EPHB1 (human) (UniProt P54762)
[13] = target: ROS1 (human) (UniProt P08922)
[14] = target: PNCK (human) (UniProt Q6P2M8)
[15] = target: NEK11 (human) (UniProt Q8NG66)
[16] = target: MKNK2 (human) (UniProt Q9HBH9)
[17] = target: ACVR1 (human) (UniProt Q04771)
[18] = target: RPS6KA3 KD1 KD2 (human) (UniProt P51812)
[19] = target: PDGFRA (human) (UniProt P16234)
[20] = target: MAPK12 (human) (UniProt P53778)
[21] = target: INSRR (human) (UniProt P14616)
[22] = target: SLK (human) (UniProt Q9H2G2)
[23] = target: YES1 (human) (UniProt P07947)
[24] = target: EPHB3 (human) (UniProt P54753)
[25] = target: TEC (human) (UniProt P42680)
[26] = target: PRKCB1 (human) (UniProt P05771)
[27] = target: MAP3K3 (human) (UniProt Q99759)
[28] = target: CSNK1D (human) (UniProt P48730)
[29] = target: DCLK2 (human) (UniProt Q8N568)
[30] = target: WNK3 (human) (UniProt Q9BYP7)
[31] = target: PLK2 (human) (UniProt Q9NYY3)
[32] = target: MAP4K4 (human) (UniProt O95819)
[33] = target: WNK2 (human) (UniProt Q9Y3S1)
[34] = target: SRPK3 (human) (UniProt Q9UPE1)
[35] = target: EPHA7 (human) (UniProt Q15375)
[36] = target: CAMK2B (human) (UniProt Q13554)
[37] = target: SRPK1 (human) (UniProt Q96SB4)
[38] = target: CHUK (human) (UniProt O15111)
[39] = target: CSNK1G3 (human) (UniProt Q9Y6M4)
[40] = target: HIPK2 (human) (UniProt Q9H2X6)
[41] = target: GRK4 (human) (UniProt P32298)
[42] = target: MET (human) (UniProt P08581)

Amino acid sequences for entries named in this document (tags omitted). A change or cut given only in a name is not applied to a line headed by its entry.
UniProt P29323: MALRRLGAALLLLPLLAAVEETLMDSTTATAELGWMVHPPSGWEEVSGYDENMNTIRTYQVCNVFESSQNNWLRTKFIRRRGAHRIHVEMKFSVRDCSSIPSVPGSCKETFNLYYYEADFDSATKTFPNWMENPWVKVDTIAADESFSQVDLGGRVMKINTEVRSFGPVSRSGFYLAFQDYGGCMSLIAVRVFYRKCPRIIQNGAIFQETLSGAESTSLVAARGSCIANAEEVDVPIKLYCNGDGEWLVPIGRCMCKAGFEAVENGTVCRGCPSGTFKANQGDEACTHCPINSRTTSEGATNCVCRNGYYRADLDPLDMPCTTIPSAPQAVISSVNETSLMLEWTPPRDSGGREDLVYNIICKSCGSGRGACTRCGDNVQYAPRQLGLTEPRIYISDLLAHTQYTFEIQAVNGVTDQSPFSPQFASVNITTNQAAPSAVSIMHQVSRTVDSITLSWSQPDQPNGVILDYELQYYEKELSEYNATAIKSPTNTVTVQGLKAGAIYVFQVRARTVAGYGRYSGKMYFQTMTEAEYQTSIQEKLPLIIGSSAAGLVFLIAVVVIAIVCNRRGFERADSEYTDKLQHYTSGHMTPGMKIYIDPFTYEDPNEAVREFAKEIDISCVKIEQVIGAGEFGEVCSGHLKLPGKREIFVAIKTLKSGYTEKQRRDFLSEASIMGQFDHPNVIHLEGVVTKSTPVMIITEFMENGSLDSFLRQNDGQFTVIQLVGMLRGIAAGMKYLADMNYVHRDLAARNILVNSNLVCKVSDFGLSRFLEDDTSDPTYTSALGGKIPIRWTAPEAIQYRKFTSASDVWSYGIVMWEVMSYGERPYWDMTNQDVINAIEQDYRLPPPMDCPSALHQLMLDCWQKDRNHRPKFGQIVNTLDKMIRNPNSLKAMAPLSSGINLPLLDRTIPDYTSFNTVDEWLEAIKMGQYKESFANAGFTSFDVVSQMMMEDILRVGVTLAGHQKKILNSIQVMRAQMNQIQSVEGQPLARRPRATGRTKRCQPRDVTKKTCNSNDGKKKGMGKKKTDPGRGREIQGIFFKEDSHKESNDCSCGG
UniProt Q9H2G2: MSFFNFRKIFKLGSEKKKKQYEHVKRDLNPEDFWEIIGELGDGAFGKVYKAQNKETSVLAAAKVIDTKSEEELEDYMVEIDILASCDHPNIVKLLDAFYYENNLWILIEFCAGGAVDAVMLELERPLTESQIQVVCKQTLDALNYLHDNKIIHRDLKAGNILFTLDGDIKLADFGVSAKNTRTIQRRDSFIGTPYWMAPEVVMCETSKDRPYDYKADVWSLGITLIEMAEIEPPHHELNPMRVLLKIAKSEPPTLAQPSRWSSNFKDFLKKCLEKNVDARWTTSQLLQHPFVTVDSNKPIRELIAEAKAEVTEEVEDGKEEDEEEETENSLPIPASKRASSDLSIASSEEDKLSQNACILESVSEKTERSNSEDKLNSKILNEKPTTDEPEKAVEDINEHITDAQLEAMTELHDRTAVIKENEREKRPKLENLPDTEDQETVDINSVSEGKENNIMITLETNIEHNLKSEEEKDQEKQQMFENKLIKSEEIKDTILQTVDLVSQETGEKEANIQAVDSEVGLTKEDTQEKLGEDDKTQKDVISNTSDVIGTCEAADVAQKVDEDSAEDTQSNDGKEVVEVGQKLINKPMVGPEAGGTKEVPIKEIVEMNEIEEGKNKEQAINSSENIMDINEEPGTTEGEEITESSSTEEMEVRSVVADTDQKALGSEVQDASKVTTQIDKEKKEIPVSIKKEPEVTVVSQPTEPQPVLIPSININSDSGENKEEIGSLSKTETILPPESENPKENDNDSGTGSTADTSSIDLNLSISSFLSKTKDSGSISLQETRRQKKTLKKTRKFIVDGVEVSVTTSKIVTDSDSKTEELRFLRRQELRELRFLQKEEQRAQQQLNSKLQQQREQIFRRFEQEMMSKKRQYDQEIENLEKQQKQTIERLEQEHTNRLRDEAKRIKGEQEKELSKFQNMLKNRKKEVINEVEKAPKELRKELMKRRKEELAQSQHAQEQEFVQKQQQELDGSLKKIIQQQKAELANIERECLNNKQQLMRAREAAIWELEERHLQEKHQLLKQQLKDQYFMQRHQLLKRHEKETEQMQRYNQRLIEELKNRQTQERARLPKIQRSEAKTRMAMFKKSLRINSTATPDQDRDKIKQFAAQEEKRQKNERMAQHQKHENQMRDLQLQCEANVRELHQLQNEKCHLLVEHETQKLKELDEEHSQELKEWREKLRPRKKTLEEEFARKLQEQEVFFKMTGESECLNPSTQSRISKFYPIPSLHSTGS
UniProt P07947, whole entry, looked up: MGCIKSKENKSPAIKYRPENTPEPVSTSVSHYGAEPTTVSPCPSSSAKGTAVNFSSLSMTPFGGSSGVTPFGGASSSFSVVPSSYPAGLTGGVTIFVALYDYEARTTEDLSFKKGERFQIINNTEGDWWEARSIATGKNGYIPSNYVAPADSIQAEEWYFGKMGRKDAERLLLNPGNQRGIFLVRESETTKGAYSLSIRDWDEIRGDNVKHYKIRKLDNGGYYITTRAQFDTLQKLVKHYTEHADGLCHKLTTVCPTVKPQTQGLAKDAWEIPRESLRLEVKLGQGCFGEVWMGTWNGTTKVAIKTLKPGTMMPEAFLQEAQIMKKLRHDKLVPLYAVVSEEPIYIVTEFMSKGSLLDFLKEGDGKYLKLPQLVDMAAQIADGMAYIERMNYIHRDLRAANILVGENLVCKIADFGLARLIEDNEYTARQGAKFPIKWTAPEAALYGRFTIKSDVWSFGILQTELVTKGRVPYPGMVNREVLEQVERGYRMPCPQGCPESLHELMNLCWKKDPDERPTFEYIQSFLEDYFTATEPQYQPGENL
UniProt P05771, whole entry, looked up: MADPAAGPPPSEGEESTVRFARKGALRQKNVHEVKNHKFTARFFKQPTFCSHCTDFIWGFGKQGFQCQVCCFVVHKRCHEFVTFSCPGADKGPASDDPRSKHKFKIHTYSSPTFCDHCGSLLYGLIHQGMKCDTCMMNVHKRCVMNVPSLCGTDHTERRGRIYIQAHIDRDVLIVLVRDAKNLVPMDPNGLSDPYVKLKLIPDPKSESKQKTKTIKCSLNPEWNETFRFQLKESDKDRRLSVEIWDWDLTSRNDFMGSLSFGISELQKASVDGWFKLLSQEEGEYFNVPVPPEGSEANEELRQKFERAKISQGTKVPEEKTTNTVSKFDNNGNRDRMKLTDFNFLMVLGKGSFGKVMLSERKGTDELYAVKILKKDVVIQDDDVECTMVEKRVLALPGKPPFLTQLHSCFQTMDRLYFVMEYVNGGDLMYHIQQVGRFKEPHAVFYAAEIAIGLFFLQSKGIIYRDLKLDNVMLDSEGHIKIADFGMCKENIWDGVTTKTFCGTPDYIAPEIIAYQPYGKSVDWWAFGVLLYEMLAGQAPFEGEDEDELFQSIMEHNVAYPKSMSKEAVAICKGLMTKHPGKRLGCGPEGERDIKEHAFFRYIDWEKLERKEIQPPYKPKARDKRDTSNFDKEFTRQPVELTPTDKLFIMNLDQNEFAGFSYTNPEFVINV
UniProt Q8N568: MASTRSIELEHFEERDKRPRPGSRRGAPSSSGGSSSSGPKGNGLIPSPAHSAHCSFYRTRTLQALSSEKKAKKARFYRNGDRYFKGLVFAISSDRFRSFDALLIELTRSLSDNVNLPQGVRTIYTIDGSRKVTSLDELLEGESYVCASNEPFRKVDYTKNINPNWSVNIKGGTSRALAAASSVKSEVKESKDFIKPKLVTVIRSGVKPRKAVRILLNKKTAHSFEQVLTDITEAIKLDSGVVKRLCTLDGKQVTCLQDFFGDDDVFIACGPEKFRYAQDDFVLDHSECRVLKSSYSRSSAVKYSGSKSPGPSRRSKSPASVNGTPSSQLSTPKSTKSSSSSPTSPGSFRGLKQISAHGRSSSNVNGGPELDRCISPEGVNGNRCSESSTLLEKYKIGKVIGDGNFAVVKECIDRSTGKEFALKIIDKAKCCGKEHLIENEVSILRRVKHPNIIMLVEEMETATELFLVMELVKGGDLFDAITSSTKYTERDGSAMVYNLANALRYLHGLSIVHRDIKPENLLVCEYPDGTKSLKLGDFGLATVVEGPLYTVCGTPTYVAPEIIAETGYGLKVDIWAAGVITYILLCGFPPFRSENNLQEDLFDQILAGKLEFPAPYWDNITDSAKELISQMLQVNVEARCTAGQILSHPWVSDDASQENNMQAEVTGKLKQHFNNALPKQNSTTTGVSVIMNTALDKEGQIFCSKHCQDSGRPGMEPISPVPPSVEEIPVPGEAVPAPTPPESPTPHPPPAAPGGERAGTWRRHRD
UniProt Q9Y3S1: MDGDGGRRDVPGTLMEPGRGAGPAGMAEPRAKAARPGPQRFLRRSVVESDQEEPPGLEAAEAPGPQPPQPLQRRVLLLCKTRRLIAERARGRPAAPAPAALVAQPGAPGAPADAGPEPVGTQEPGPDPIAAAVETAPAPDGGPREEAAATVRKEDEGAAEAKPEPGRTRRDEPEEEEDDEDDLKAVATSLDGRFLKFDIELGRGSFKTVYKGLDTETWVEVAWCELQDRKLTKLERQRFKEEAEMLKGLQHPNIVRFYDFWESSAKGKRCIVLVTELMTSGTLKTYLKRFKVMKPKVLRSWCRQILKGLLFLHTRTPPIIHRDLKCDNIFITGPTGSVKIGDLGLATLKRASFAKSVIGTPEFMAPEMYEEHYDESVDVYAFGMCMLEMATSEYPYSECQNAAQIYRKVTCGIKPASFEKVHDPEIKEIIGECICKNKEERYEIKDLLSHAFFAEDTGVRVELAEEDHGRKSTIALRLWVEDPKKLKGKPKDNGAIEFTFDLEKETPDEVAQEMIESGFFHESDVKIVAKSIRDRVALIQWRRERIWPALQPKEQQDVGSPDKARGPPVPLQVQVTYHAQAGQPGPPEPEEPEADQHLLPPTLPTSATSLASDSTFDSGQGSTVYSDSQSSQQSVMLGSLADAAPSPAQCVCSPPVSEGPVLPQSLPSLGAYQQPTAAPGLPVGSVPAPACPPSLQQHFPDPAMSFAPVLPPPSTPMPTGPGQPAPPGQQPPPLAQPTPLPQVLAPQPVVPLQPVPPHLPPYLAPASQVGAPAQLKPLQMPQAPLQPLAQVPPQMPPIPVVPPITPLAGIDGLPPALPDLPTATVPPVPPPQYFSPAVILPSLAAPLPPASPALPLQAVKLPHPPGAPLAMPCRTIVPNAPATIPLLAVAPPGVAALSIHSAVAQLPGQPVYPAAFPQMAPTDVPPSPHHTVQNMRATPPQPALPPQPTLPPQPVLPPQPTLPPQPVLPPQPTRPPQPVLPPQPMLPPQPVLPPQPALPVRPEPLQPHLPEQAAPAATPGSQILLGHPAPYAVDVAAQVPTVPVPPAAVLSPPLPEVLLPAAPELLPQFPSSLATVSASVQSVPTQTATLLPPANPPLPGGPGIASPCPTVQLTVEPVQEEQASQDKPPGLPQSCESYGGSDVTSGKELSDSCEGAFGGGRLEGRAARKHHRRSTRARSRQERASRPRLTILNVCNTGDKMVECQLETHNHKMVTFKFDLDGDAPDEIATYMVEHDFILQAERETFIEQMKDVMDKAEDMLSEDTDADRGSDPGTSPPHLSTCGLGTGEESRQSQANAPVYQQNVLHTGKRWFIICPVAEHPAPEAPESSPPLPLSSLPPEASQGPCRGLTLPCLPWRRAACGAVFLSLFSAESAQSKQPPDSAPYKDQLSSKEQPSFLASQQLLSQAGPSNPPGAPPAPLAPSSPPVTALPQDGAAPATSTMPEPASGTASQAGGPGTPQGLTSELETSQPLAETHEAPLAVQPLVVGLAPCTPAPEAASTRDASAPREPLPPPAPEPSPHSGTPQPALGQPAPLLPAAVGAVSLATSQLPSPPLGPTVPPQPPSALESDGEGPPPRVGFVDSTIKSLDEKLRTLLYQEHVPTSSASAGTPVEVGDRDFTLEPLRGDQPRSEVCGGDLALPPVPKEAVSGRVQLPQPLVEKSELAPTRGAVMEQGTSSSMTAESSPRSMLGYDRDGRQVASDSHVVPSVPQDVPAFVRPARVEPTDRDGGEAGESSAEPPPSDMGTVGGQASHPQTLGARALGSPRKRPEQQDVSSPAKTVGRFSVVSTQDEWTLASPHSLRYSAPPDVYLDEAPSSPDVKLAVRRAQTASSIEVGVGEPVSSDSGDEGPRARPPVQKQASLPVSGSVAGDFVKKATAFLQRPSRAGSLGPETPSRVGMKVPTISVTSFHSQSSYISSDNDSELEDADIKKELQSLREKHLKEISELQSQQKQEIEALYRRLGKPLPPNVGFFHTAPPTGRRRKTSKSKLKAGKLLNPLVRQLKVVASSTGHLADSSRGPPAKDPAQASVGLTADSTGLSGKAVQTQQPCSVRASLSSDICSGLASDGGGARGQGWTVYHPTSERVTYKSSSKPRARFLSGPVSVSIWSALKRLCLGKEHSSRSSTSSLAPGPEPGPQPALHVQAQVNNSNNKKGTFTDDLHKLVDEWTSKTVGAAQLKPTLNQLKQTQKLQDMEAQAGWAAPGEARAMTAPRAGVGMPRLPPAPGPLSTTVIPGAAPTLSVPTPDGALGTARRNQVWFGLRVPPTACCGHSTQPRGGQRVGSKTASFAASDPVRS

Structure (SMILES): CO[C@H]1[C@@H](OC)C[C@H](C)[C@@H](OC)C2=CC(=O)C=C(NC(=O)/C(C)=C\C=C/[C@H](OC)[C@@H](OC(N)=O)/C(C)=C\[C@@H]1C)C2=O
- residual activity [1]: 103%
- residual activity [2]: 86.9%
- residual activity [3]: 94.4%
- residual activity [4]: 104%
- residual activity [5]: 101%
- residual activity [6]: 95.8%
- residual activity [7]: 105%
- residual activity [8]: 90.8%
- residual activity [9]: 101%
- residual activity [10]: 119%
- residual activity [11]: 96.1%
- residual activity [12]: 104%
- residual activity [13]: 91.9%
- residual activity [14]: 98.5%
- residual activity [15]: 104%
- residual activity [16]: 91.5%
- residual activity [17]: 102%
- residual activity [18]: 99%
- residual activity [19]: 92.1%
- residual activity [20]: 95.4%
- residual activity [21]: 95.2%
- residual activity [22]: 97.1%
- residual activity [23]: 90.5%
- residual activity [24]: 91.3%
- residual activity [25]: 147%
- residual activity [26]: 92.5%
- residual activity [27]: 103%
- residual activity [28]: 97.2%
- residual activity [29]: 96.9%
- residual activity [30]: 99.4%
- residual activity [31]: 102%
- residual activity [32]: 92%
- residual activity [33]: 98.3%
- residual activity [34]: 99.6%
- residual activity [35]: 102%
- residual activity [36]: 100%
- residual activity [37]: 88.7%
- residual activity [38]: 99.9%
- residual activity [39]: 95.2%
- residual activity [40]: 102%
- residual activity [41]: 103%
- residual activity [42]: 135%

From the kinase profiling compilation of Christmann-Franck et al. (2016)
